Measured values published in patent US9387246B2, “Treatment methods for rheumatoid arthritis” (priority 2013, dated 2016).

Experiments:
[1] = system: Rheumatoid arthritis patients; assay: Change in VECTRA DA Score after treatment (Example 2); type: in vivo, human; details: Patient 8
Excerpt: The term “VECTRA DA Score” or “VECTRA DA MBDA Score” as used herein refers to a score obtained from an algorithm/formula that combines the concentrations of 12 serum protein biomarkers measured in VECTRA® DA test (Crescendo Bioscience, Inc.) into a single score that represents the level of rheumatoid arthritis disease activity on a scale of 1 to 100. A VECTRA DA Score of ≦29 reflects low disease activity, a VECTRA DA Score of >29 and ≦44 reflects moderate disease activity, and a VECTRA DA Score of >44 reflects high disease activity. VECTRA DA Score is provided in VECTRA DA test report.
VECTRA® DA test is a multi-biomarker disease activity (MBDA) blood test sold by Crescendo Bioscience. The test provides a quantitative assessment of rheumatoid arthritis disease activity in patients by using twelve protein biomarkers—Vascular Cell Adhesion Molecule 1 (VCAM-1), Epidermal Growth Factor (EGF), Vascular Endothelial Growth Factor A (VEGF-A), Interleukin-6 (IL-6), Tumor Necrosis Factor Receptor Type 1 (TNFR1), Matrix Metalloproteinase-1 (MMP-1), Matrix Metalloproteinase-3 (MMP-3), YKL-40, Leptin, Resistin, Serum Amyloid A (SAA), and C-Reactive Protein (CRP). […]
The patients were treated with the selected treatment methods for at least five months and the post-treatment biomarker levels and VECTRA DA Score were determined by VECTRA® DA test along with CRP level and ESR. […]

[2] = system: Rheumatoid arthritis patients; assay: Treatment outcome (effectiveness, clinical course) of treatment methods (Example 2); type: in vivo, human
Method: A group of biomarkers having each biomarker with at least 40% elevated serum level than the serum level in a control set of RA patients from the InFoRM study (that was used to establish range of biomarker level in patients) was identified. Treatment methods were identified that are known to affect at least two biomarkers from among the selected biomarkers (using the Grid). […]
The patients were treated with the selected treatment methods for at least five months and the post-treatment biomarker levels and VECTRA DA Score were determined by VECTRA® DA test along with CRP level and ESR. The change is VECTRA DA Score, CRP level and ESR was determined to determine the change in disease activity and effectiveness of the selected treatment method.
The treatment method was determined to be effective when the post-treatment disease activity was lower than the pre-treatment disease activity in the patient: when VECTRA DA Score was lower than the pre-treatment VECTRA DA Score and/or when post-treatment CRP level and/or post-treatment ESR was lower than the corresponding pre-treatment values.
If the first selected treatment method was determined to be ineffective in the patient, then a second treatment method was selected based on the similar protocol as discussed before.

[3] = system: Rheumatoid arthritis patients; type: in vivo, human
Excerpt: A group of biomarkers having each biomarker with at least 40% elevated serum level than the serum level in a control set of RA patients from the InFoRM study (that was used to establish range of biomarker level in patients) was identified. Treatment methods were identified that are known to affect at least two biomarkers from among the selected biomarkers (using the Grid). Among the identified treatment methods, the methods were selected based on the patient's history—the methods that were contraindicated, were unsuccessful in treating the patient previously, or were known to cause an allergic response in the patient were avoided, and the treatment methods that were known to affect the maximum number of biomarkers or were known to affect the maximum number of the highest elevated biomarkers and were administered via patient's preferred route were selected and were administered to the patient. […] (hydroxychloroquine) and sulfasalazine were not used to treat the patients due to their clinical histories—[…] and sulfasalazine are mild drugs that work on mild cases of arthritis early in the disease process. […]
The treatment method (one method or a combination of methods) was determined to be effective when the post-treatment disease activity was lower than the pre-treatment disease activity in the patient: when VECTRA DA Score was lower than the pre-treatment VECTRA DA Score. Specifically, the treatment method was determined to be effective when the post-treatment disease activity was at least 20% lower than the pre-treatment disease activity, or when the VECTRA DA Score is decreased to a lower disease activity level after the treatment (i.e., from high to moderate, or high to low, or moderate to low).
If the first selected treatment method (one method or a combination of methods) was determined to be ineffective in the patient, then a second treatment method (one method or a combination of methods) was selected based on the similar protocol as discussed before. […]

[4] = system: VCAM-1; set-up: key: Y: biomarkers that are known to be positively affected by a treatment method (i.e., biomarkers that are known to have a favorable response to a treatment method); N: biomarkers that are not known to be positively affected by a treatment method (i.e., biomarkers that are known to have an unfavorable response to a treatment method); biomarkers that are known to be positively affected by a ORENCIA, the brand name of Atabacept; details: literature 1990-2012, ACR abstracts 2006-2013; cited from earlier work
[5] = system: VEGF-A; set-up: key: Y: biomarkers that are known to be positively affected by a treatment method (i.e., biomarkers that are known to have a favorable response to a treatment method); N: biomarkers that are not known to be positively affected by a treatment method (i.e., biomarkers that are known to have an unfavorable response to a treatment method); biomarkers that are known to be positively affected by a ORENCIA, the brand name of Atabacept; details: literature 1990-2012, ACR abstracts 2006-2013; cited from earlier work
[6] = system: IL-6; set-up: key: Y: biomarkers that are known to be positively affected by a treatment method (i.e., biomarkers that are known to have a favorable response to a treatment method); N: biomarkers that are not known to be positively affected by a treatment method (i.e., biomarkers that are known to have an unfavorable response to a treatment method); biomarkers that are known to be positively affected by a ORENCIA, the brand name of Atabacept; details: literature 1990-2012, ACR abstracts 2006-2013; cited from earlier work
[7] = system: MMP-1; set-up: key: Y: biomarkers that are known to be positively affected by a treatment method (i.e., biomarkers that are known to have a favorable response to a treatment method); N: biomarkers that are not known to be positively affected by a treatment method (i.e., biomarkers that are known to have an unfavorable response to a treatment method); biomarkers that are known to be positively affected by a ORENCIA, the brand name of Atabacept; details: literature 1990-2012, ACR abstracts 2006-2013; cited from earlier work
[8] = system: MMP-3; set-up: key: Y: biomarkers that are known to be positively affected by a treatment method (i.e., biomarkers that are known to have a favorable response to a treatment method); N: biomarkers that are not known to be positively affected by a treatment method (i.e., biomarkers that are known to have an unfavorable response to a treatment method); biomarkers that are known to be positively affected by a ORENCIA, the brand name of Atabacept; details: literature 1990-2012, ACR abstracts 2006-2013; cited from earlier work
[9] = system: YKL-40; set-up: key: Y: biomarkers that are known to be positively affected by a treatment method (i.e., biomarkers that are known to have a favorable response to a treatment method); N: biomarkers that are not known to be positively affected by a treatment method (i.e., biomarkers that are known to have an unfavorable response to a treatment method); biomarkers that are known to be positively affected by a ORENCIA, the brand name of Atabacept; details: literature 1990-2012, ACR abstracts 2006-2013; cited from earlier work
[10] = system: Leptin; set-up: key: Y: biomarkers that are known to be positively affected by a treatment method (i.e., biomarkers that are known to have a favorable response to a treatment method); N: biomarkers that are not known to be positively affected by a treatment method (i.e., biomarkers that are known to have an unfavorable response to a treatment method); biomarkers that are known to be positively affected by a ORENCIA, the brand name of Atabacept; details: literature; Leptin usable as biomarker only in patients with 15% or less body fat; cited from earlier work
[11] = system: Resistin; set-up: key: Y: biomarkers that are known to be positively affected by a treatment method (i.e., biomarkers that are known to have a favorable response to a treatment method); N: biomarkers that are not known to be positively affected by a treatment method (i.e., biomarkers that are known to have an unfavorable response to a treatment method); biomarkers that are known to be positively affected by a ORENCIA, the brand name of Atabacept; details: literature 1990-2012, ACR abstracts 2006-2013; cited from earlier work
[12] = system: SAA; set-up: key: Y: biomarkers that are known to be positively affected by a treatment method (i.e., biomarkers that are known to have a favorable response to a treatment method); N: biomarkers that are not known to be positively affected by a treatment method (i.e., biomarkers that are known to have an unfavorable response to a treatment method); biomarkers that are known to be positively affected by a ORENCIA, the brand name of Atabacept; details: literature 1990-2012, ACR abstracts 2006-2013; cited from earlier work
[13] = system: CRP; set-up: key: Y: biomarkers that are known to be positively affected by a treatment method (i.e., biomarkers that are known to have a favorable response to a treatment method); N: biomarkers that are not known to be positively affected by a treatment method (i.e., biomarkers that are known to have an unfavorable response to a treatment method); biomarkers that are known to be positively affected by a ORENCIA, the brand name of Atabacept; details: literature 1990-2012, ACR abstracts 2006-2013; cited from earlier work

Abatacept [ATAB]
VECTRA DA disease activity state after treatment ([1]; March 2013): (low disease (A VECTRA DA Score of ≦29 reflects low disease activity)
VECTRA DA Score - Decreased by ([1]; treatment December 2012-June 2013, score March 2013): Decreased by 20
Treatment Outcome ([2]; Patient 8, MTX not algorithm-selected, ORENCIA December 2012-June 2013, based on VECTRA DA score): Effective,
Treatment Outcome ([2]; Patient 10, MTX (November 2011) and ORENCIA (August-December 2012) not algorithm-selected, HUMIRA December 2012-June 2013, based on VECTRA DA Score): Not effective
Outcome of previous treatment ([3]; Patient 2, before August 2012): unsuccessful
Reason for replacement of treatment ([3]; Patient 7, June 2013): lack of efficacy,
Treatment effectiveness (reason for discontinuation / earlier trial) ([3]; patient 16, January 2014): to inefficacy
VCAM-1 positively affected by treatment method [4]: Y
VEGF-A positively affected by treatment method [5]: N
IL-6 positively affected by treatment method [6]: Y
MMP-1 positively affected by treatment method [7]: N
MMP-3 positively affected by treatment method [8]: Y
YKL-40 positively affected by treatment method [9]: N
Leptin positively affected by treatment method [10]: O
Resistin positively affected by treatment method [11]: N
SAA positively affected by treatment method [12]: N
CRP positively affected by treatment method [13]: Y
